The entries are a selection whose mix differs from that of the whole data set. Some of these compounds have results that are not shown, active ones among them. Calls of active or inactive are those of the source. Cut-off read from the data, not from the text of the source: active = inhibition above about 32% (passing the limit was not always enough); inconclusive = no clear call, values can overlap the other calls.
Target: Cathepsin S (Homo sapiens) (UniProt P25774)
Assay: inhibitors of human cathepsin S, biochemical, compound mixtures (AID 501);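 note: 0% = enzyme without compound and 100% = blank without enzyme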
Conditions: recombinant cathepsin S, AMC dipeptide fluorescence, pooled mixtures; stronger effect = higher value;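 tested at 5 µM per compound within 10-compound mixtures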

The chains behind the UniProt entries cited, without tags or fusion partners. Residues count along the entry.
UniProt P25774, 115-331 limits assumed: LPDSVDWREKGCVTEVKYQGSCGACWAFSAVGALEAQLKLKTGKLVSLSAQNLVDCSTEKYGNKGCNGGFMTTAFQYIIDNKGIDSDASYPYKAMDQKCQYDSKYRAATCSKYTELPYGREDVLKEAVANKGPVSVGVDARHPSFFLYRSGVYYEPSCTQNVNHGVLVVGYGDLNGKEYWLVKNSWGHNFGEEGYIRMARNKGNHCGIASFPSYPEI

| SMILES | inhibition |
| --- | --- |
| CN(C)c1cccc(C(=O)NCC2(N(C)C)CCCCC2)c1 | inactive: 10.4% |
| O=C(OC1CN2CCC1CC2)C(CO)(c1ccccc1)c1ccccc1 (configuration not stated) | inactive: 2.46% |

From PubChem BioAssay AID501 (PCMD, 2006)
